Measured affinities in a library of Ab-14 light chain variants

The measurements come from Engelhart et al. 2022 (doi:10.1038/s41597-022-01779-4) through the FLAb antibody collection.

Target: peptide PDVDLGDISGINAS, taken from heptad repeat 2 (HR2) of SARS-CoV-2 spike.

Ab-14 is the parent antibody, in scFv form: VH, then three GGGGS repeats, then VL. The heavy chain is unchanged in all variants.
VH: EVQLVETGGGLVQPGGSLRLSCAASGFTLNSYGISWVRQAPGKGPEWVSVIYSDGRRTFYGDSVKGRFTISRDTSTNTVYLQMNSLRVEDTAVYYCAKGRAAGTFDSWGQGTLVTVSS
VL: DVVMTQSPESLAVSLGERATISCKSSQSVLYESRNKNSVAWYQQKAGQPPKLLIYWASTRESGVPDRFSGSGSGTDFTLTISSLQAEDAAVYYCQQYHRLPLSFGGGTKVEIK

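The parent was found by panning a naive human phage display library on the peptide. In library AAYL50, one, two or three CDR residues were substituted; doubles and triples were drawn at random. AlphaSeq pools MATa yeast showing the antibodies with MATalpha yeast showing the peptide. Binding brings cells together so that they mate, and sequencing counts the barcode pairs among the diploids. Read counts were normalised to the haploid input and turned into Kd by a linear fit to BCL2-family pairs of known affinity, for each replicate. Each pool was mated in three replicate cultures.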

Positions count from residue 1 of the parent VL; Y31I puts I in place of Y. Kd is apparent (estimated from mating counts) and averaged on the log scale over replicates with a signal. Smaller is tighter. A pair that was not seen in any replicate is written "nd"; this usually means weak binding, but a binder can also be missed. Three control strains display no target. For library AAYL50, 18% of the pairings with them gave a signal, with a median of 15 µM and one signal in twenty below 970 nM, so weak values seen in few replicates may be background. For each scFv, signals with the empty controls are counted beside the result.

changes	apparent Kd	seen in	signal with controls
Y31I A57L R60E	9.7 µM	1 of 3	1 of 9
S26F T59P L102G	nd	0 of 3	0 of 9
Q27V R34L S58Q	33 nM	3 of 3	1 of 9
Q27D S28C V39F	530 nM	1 of 3	0 of 9
Q27T N35P	48 nM	3 of 3	2 of 9
N37E R99T L100C	9.5 nM	3 of 3	2 of 9
E32Q S33Q P101D	nd	0 of 3	0 of 9
Q27E L30T L100W	970 nM	2 of 3	3 of 9
S38D T59N L100V	6.1 µM	2 of 3	2 of 9
Q96E S103G	4.4 nM	3 of 3	1 of 9
K24M K36D E61V	3.7 nM	3 of 3	0 of 9
A40L R99N	nd	0 of 3	1 of 9
S26M T59Y E61Q	nd	0 of 3	0 of 9
Q27F V29P L30M	84 µM	2 of 3	4 of 9
S28A K36S W56Y	3.7 nM	3 of 3	2 of 9
K24M Q27F	61 nM	3 of 3	3 of 9
V29Q V39R Y97D	nd	0 of 3	1 of 9
N35G P101K L102W	30 nM	3 of 3	1 of 9
S26N L30G S62F	41 nM	3 of 3	0 of 9
S38G P101N S103L	32 nM	3 of 3	0 of 9
S28R N35I E61M	30 nM	3 of 3	1 of 9
S26N L100S S103N	nd	0 of 3	2 of 9
K24Y Q27D	27 µM	1 of 3	2 of 9
Q27K N37Y S62W	18 nM	3 of 3	2 of 9
S33Y E61N S62Y	1.7 µM	3 of 3	0 of 9

Continued, with the values leading:

apparent Kd	seen in	signal with controls	changes
7.9 µM	3 of 3	6 of 9	S26K E32Q S62C
18 µM	1 of 3	4 of 9	E32I Q96W Y97K
nd	0 of 3	0 of 9	H98C L100P L102C
nd	0 of 3	0 of 9	E32Y Q95M L102Q
nd	0 of 3	1 of 9	E32V Q95A Q96I
270 nM	3 of 3	1 of 9	R34T S38Y Y97V
2.2 µM	3 of 3	0 of 9	S38Q Q96E
nd	0 of 3	0 of 9	E32S S38W S103V
nd	0 of 3	0 of 9	S62C R99K P101E
1.9 µM	3 of 3	2 of 9	E32K S38P H98M
97 nM	3 of 3	4 of 9	S28D Q95G H98M
nd	0 of 3	0 of 9	K24M K36T S38I
1.7 nM	3 of 3	2 of 9	K24D S25L
8.0 nM	3 of 3	2 of 9	E61V S62I
450 µM	1 of 3	5 of 9	S26H L30D R60D
84 µM	3 of 3	6 of 9	V39A H98W
10 µM	2 of 3	2 of 9	V29W A40F H98R
nd	0 of 3	0 of 9	Y97D L102T S103L
130 µM	2 of 3	3 of 9	K24V E32D V39F
1.5 µM	1 of 3	0 of 9	R34A K36W P101I
nd	0 of 3	2 of 9	S28C Y97R
4.7 µM	2 of 3	2 of 9	Q27N V39S
11 nM	3 of 3	3 of 9	S25E E32D
nd	0 of 3	1 of 9	V29T N35I L102D
3.0 µM	1 of 3	1 of 9	S33I S62G
23 nM	3 of 3	1 of 9	S26F E32G T59Q

Picked from the list: the 4 lowest averages where every replicate gave a value.

changes	apparent Kd	seen in	signal with controls
K24D S25L	1.7 nM	3 of 3	2 of 9
K24M K36D E61V	3.7 nM	3 of 3	0 of 9
S28A K36S W56Y	3.7 nM	3 of 3	2 of 9
Q96E S103G	4.4 nM	3 of 3	1 of 9